{"source": "patent US20240180849A1", "about": "“IMMUNOFUNCTIONAL CARRIER, METHODS OF USES, AND COMPOSITION MATTERS AS AN ANTITUMOR IMMUNOTHERAPY” (priority 2021, published 2024)", "key": {"[1]": {"settings": "aqueous medium"}, "CT26 tumor": {"system": "CT26 tumor", "settings": "Cy7-labeled, intratumoral"}, "[2]": {"test": "In vivo toxicity (death) after intratumoral injection", "settings": "2.74 mg/mouse"}}}
{"substance": "Polyethyleneimine-Lithocholic Acid Conjugate [2E′]", "values": [{"measurement": "critical assembly concentration", "setting": "[1]", "result": 2.6, "unit": "µg/mL"}, {"measurement": "disappearance from the injection site", "setting": "CT26 tumor", "result": "disappeared from the injection site more slowly than PEI"}, {"measurement": "mice that died in 48 h", "setting": "[2]", "result": "0/7"}]}
